This note sets out measurements from ChEMBL document CHEMBL1127803 (J Med Chem, 1994).

Sequences of proteins named here, by UniProt entry; tags and fusion partners are left off.
UniProt P33535, whole entry: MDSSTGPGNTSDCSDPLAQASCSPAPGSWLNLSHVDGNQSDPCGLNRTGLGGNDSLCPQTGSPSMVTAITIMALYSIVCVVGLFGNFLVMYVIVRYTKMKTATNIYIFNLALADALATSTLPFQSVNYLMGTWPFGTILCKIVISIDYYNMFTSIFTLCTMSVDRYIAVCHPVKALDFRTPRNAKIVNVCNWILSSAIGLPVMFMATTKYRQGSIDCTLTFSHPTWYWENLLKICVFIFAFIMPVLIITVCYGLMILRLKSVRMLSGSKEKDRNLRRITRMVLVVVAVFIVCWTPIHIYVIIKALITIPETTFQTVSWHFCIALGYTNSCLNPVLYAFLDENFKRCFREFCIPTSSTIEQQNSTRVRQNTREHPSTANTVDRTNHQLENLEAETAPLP

As usually defined, the IC50 is the concentration at which inhibition is half-maximal. Read a high IC50 as a need for much substance.

In the assay the target is Mu-type opioid receptor (Rattus norvegicus, UniProt P33535). The experiment in a line: Evaluated for inhibition of [3H]DAMGO binding from mu receptor in rat brain membranes. It counts as cell membranes.
As for `C=CCN1C[C@H](C)N(C(c2ccc(C(=O)N(CC)CC)cc2)c2cccc(O)c2)C[C@H]1C` (single isomer, unassigned; (+)-10), the IC50 turned out to be 0.426 µM.

Regarding `C=CCN1C[C@H](C)N(C(c2ccc(C(=O)N(CC)CC)cc2)c2cccc(O)c2)C[C@H]1C` (single isomer, unassigned; (+)-1), the IC50 came out at 0.00971 µM. Next, `C=CCN1C[C@@H](C)N([C@H](c2ccc(C(=O)N(CC)CC)cc2)c2cccc(O)c2)C[C@@H]1C`: 2.32 µM; `C=CCN1CC(C)N(C(c2ccc(C(=O)N(CC)CC)cc2)c2cccc(O)c2)CC1C` (racemic): 0.0463 µM.

In turn, `C=CCN1C[C@@H](C)N([C@@H](c2ccc(C(=O)N(CC)CC)cc2)c2cccc(O)c2)C[C@@H]1C` registered an IC50 of 0.167 µM.
